Source: PubChem BioAssay (NCI)
Some results for these compounds are left out of this collection, so the calls shown say nothing about other tests.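 Assay format: 96-well plates, 48-hour exposure. TGI: total growth inhibition.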

Key:
Test in all cases: NCI-60 cell line screen, 48 h
[1] = system: NCI/ADR-RES ovarian
[2] = system: MDA-MB-231 breast
[3] = system: A549 NSCLC
[4] = system: CAKI-1 renal
[5] = system: MALME-3M melanoma
[6] = system: COLO 205 colon
[7] = system: SF-539 CNS
[8] = system: SW-620 colon
[9] = system: SNB-19 CNS
[10] = system: SN12C renal
[11] = system: HCC-2998 colon
[12] = system: NCI-H522 lung
[13] = system: SF-268 CNS
[14] = system: 786-0 renal
[15] = system: UACC-257 melanoma
[16] = system: OVCAR-5 ovarian
[17] = system: MDA-N
[18] = system: NCI-H226 lung
[19] = system: T-47D breast
[20] = system: LOX IMVI melanoma
[21] = system: SR leukemia
[22] = system: SF-295 CNS
[23] = system: ACHN renal
[24] = system: TK-10 renal
[25] = system: OVCAR-8 ovarian
[26] = system: CCRF-CEM leukemia
[27] = system: UO-31 renal
[28] = system: SNB-75 CNS
[29] = system: RPMI-8226 leukemia
[30] = system: EKVX NSCLC
[31] = system: PC-3 prostate
[32] = system: HCT-116 colon
[33] = system: K-562 leukemia
[34] = system: KM12 colon
[35] = system: SK-MEL-28 melanoma
[36] = system: M14 melanoma
[37] = system: NCI-H23 lung
[38] = system: SK-OV-3 ovarian
[39] = system: HT29 colon
[40] = system: IGROV1 ovarian
[41] = system: MOLT-4 leukemia
[42] = system: RXF 393 renal
[43] = system: OVCAR-3 ovarian
[44] = system: DU-145 prostate
[45] = system: U251 CNS
[46] = system: UACC-62 melanoma
[47] = system: HOP-62 NSCLC
[48] = system: HCT-15 colon
[49] = system: SK-MEL-5 melanoma
[50] = system: MCF7 breast
[51] = system: HL-60(TB) leukemia

Measured: TGI

CC(C)C(O)(C(=O)OCC1=CC2CCN1CC2)c1ccccc1 (stereo unspecified)
> 100 µM: all assays above
